Results taken from US20080280357A1, “Cryopreservation of Hepatocytes” (priority 2005, published 2008).

Columns and labels:
[1] = system: human hepatocytes cryopreserved according to the invention (testosterone hydroxylation); settings: cryopreserved and recultured hepatocytes, 24 hours in rifampicin
[2] = system: freshly isolated hepatocytes (testosterone hydroxylation); settings: freshly cultured hepatocytes, 24 hours in rifampicin

CO[C@H]1/C=C/O[C@@]2(C)Oc3c(C)c(O)c4c(O)c(c(/C=N/N5CCN(C)CC5)c(O)c4c3C2=O)NC(=O)/C(C)=C\C=C\[C@H](C)[C@H](O)[C@@H](C)[C@@H](O)[C@@H](C)[C@H](OC(C)=O)[C@@H]1C [rifampicin] was tested, and the “induction of formation of 6α-hydroxytestosterone (6α-OHT)” value [1] was “unable to induce” and the “induction of formation of 6α-hydroxytestosterone (6α-OHT)” value [2] was “unable to induce”.
